Among all 340,000 compounds or so, about 100 (0.029%) were called active. A call without a number means that no potency is given here. Roughly 8% stayed inconclusive and do not appear here. Calls come from the whole dose curve. The full list was thinned out, with actives kept by preference.
Potency is the fitted concentration of half-maximal effect; tags give direction and shape of the fitted curve.

Sequences of proteins named here, by UniProt entry; tags and fusion partners are left off.
UniProt Q14974, whole entry, looked up: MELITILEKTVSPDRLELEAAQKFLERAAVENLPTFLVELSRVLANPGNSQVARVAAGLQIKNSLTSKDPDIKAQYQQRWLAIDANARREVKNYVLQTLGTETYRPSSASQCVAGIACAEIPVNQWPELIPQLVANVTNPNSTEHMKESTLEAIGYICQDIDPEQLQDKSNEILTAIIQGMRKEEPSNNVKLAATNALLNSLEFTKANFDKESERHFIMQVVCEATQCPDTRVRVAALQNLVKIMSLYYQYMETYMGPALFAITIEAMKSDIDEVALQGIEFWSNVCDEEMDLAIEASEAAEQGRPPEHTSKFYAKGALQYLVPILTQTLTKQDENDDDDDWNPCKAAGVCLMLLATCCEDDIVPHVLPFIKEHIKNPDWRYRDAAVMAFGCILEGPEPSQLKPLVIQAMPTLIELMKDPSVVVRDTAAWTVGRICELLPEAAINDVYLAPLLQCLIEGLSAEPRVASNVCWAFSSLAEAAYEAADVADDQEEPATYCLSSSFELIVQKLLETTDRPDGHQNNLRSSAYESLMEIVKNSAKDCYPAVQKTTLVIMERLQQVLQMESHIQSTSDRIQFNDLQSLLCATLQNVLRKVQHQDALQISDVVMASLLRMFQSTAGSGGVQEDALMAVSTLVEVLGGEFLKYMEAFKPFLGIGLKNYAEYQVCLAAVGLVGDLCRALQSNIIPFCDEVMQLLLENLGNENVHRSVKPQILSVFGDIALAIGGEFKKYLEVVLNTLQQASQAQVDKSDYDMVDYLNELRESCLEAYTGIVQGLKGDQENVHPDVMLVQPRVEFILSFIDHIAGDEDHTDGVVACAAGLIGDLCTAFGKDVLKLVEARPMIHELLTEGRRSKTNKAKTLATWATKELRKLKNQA

The experiment addresses Importin subunit beta-1 (Homo sapiens) (UniProt Q14974). Nature of the experiment: qHTS Assay for Inhibitors of Rango (Ran-regulated importin-beta cargo) - Importin beta complex formation. Note: nearly all actives have a fitted effect of over 15% in size. Conditions: Rango CFP/YFP FRET sensor + importin beta, 45 min; series mostly up to 92.2 µM. The source says:
NIH Molecular Libraries Probe Production Centers Network [MLPCN] NIH Chemical Genomics Center [NCGC] MLPCN Grant: R03 MH090808-01A1 Assay Submitter (PI): Petr Kalab NCGC Assay Overview: The small GTPase Ran regulates transport of macromolecules between the nucleus and the cytoplasm (nuclear transport) and has important functions in mitotic spindle assembly, nuclear envelope (NE) formation and nuclear pore complex (NPC) assembly. RanGTP gradient is thought to promote spindle assembly by providing a spatial clue to microtubule nucleation and Aurora A activation. Because the localized release and binding of importin alpha cargo relays this spatial clue to SAFs, inhibitors of the Rango - importin beta complex can then be used in further understanding their role in cell cycle specifically in mitosis progression. […] Activation of Aurora A has been linked to different types of cancer and a number of Aurora kinase inhibitors are being developed as potential canter therapeutics therefore, identified inhibitors of this complex could be developed into potential anti-mitotic probes for cancer treatment. Purified recombinant proteins Rango and importin beta were provided by the assay submitter. The assay used a fluorescence resonance energy transfer (FRET) Rango biosensor that contains the IBB of human snurportin 1 flanked by yellow fluorescent protein (EYFP) at the amino terminus and cerulean CFP10 at the carboxy terminus. […] Inhibitors will therefore be identified based on the ability to interfere with the FRET signal decrease. DMSO treated and no importin beta (buffer only) wells were used as negative and positive controls respectively. FRET readings were obtained at two time points. FRET reading prior to importin beta addition (pre-read) were used flag potential compound interference; FRET reading after importin beta addition (post-read) were used to identify inhibitors using the FRET ratio parameter.
NCGC Assay Protocol Summary: Two and a half uL/well of Rango-buffer solution (50 nM Rango, 1x PBS, 1mM DTT, 0.02% Tween-20, 0.1% BSA final concentrations) was dispensed into 1536-well assay plates (Greiner, solid black medium-binding plates) with Aurora Discovery BioRAPTR Flying Reagent Dispenser (FRD; Beckton-Dickenson). Compound solution (23 nL) was transferred to the assay plate using Kalypsys pin tool equipped with a 1536-pin tool and incubated at room temperature for 5 min followed by a FRET pre-read using the PerkinElmer Envision plate reader. Two and a half uL/well of Importin beta - buffer solution (0.125 microM importin beta, 1x PBS, 1mM DTT, 0.02% Tween-20, 0.1% BSA final concentrations) were then added and incubated at room temperature giving a final reaction volume of 5uL. After 45min FRET post-read was obtained via the Envision plate reader using the same optics and settings as the pre-read (CFP/YFP optimized dual optical module D450/D505; excitation mirror CFP 430/24 nm; and emission filters CFP 486/10 nm and YFP 530/10 nm).
Turning to `C=CCOC(=O)N1CCC2CC1c1cc(-c3ccc(OC)cc3)ccc12` (stereo not given), the Potency result was “inactive”.

Regarding `O=C(NCCc1ccccc1)c1c[nH]c2ccc(F)cc2c1=O`, the Potency result was “inactive”.

On to `COc1ccc(CCC(=O)Nc2ccc(Cl)c(S(=O)(=O)N3CCOCC3)c2)cc1OC`, for which the Potency result was “inactive”.

Consider `O=C(CNC(=O)c1cc(S(=O)(=O)N2CCOCC2)ccc1N1CCCC1)Nc1ccc(F)c(F)c1`, for which the Potency result was “inactive”.

For the compound `Cc1ccc(NC(=O)C(C)OC(=O)C2CC3CCCC(C2)C3=O)cc1S(=O)(=O)N1CCOCC1` (stereo not given), the Potency entry was “inactive”.

Take `Cn1cc(C2OC(=O)c3ccccc32)c2ccccc21` (stereo not given): the Potency result was “inactive”.

Regarding `O=C(Nc1ccc(S(=O)(=O)N2CCOCC2)cc1)C1CCN(S(=O)(=O)c2ccc(Cl)cc2)CC1`, the Potency entry is “inactive”.

Turning to `CC1C(C)N(C(=O)CCl)c2ccccc2N1C(=O)CCl` (stereo not given), the Potency entry is “inactive”.

Regarding `NS(=O)(=O)c1ccc(CCNC(=O)c2ccc(Cl)c(S(=O)(=O)N3CCCCCC3)c2)cc1`, the Potency entry is “inactive”.

Regarding `O=C1c2ccccc2C(=O)N1CCCCCCN1C(=O)c2ccccc2C1=O`, the Potency result is “inactive”.

Take `CC(C)C[C@H]1CN([C@@H](CC(C)C)CN2CCC[C@@H]2CN2C(=O)C(=O)NC[C@@H]2Cc2ccccc2)C(=O)C(=O)N1CCc1ccccc1`: the Potency result was “inactive”.

As for `COc1ccc(-c2ccc3c(c2)C2CC3CCN2CCC#N)cc1` (stereo not given), the Potency entry was “inactive”.

As to `CN(C)C(CNC(=O)c1cc2ccccc2o1)c1ccccc1` (stereo not given), the Potency result is “inactive”.

With `CCCCNC1(C#N)CCN(Cc2ccccc2)CC1`, the Potency result was “inactive”.

Consider `NC(=O)C1(Nc2ccccc2Cl)CCCC1`, for which the Potency result is “inactive”.

Consider `COc1ccc(S(=O)(=O)N2CCc3ccccc32)cc1C(=O)Nc1cc(S(C)(=O)=O)ccc1Cl`, for which the Potency entry was “inactive”.

As to `Cc1cc(NC(=O)C(C)SCC(=O)Nc2cccc(S(=O)(=O)N3CCCCCC3)c2)no1` (stereo not given), the Potency result was “inactive”.

Take `NC(=O)c1ncn([C@@H]2O[C@H](CN=C3NS(=O)(=O)c4ccccc43)[C@@H](O)[C@H]2O)n1`: the Potency result was “inactive”.

For `Cc1cc([N+](=O)[O-])c(=O)[nH]c1C`, the Potency result was “inactive”.

As to `O=C1OC(Cc2ccccc2)C(c2ccccc2)C1=O` (stereo not given), the Potency result is “inactive”.

Turning to `O=C(Nc1ccn(CCCNCc2ccc3[nH]ccc3c2)c(=O)n1)OCc1ccccc1`, the Potency entry was “inactive”.

As for `CCCCNCCS(=O)(=O)NCc1ccccc1`, the Potency result is “inactive”.

Regarding `CNc1nc(=O)n(C2CCCO2)cc1C` (stereo not given), the Potency result was “inactive”.

As for `S=C(Nc1ccccc1)Nc1ccc2ccccc2c1`, the Potency entry is “inactive”.

For the compound `COc1ccc(S(=O)(=O)N2C[C@H]3CON(C)[C@H]3C[C@H]2c2cccc(Br)c2)cc1`, the Potency result was “inactive”.

Consider `Cc1ccc(-c2csc(C(C#N)=C(O)CN3CCN(C(=O)c4ccco4)CC3)n2)cc1`, for which the Potency entry is “inactive”.

Take `Cc1ccc(S(=O)(=O)N2CCC(C(=O)N3CCCCCCC3)CC2)cc1`: the Potency result was “inactive”.

For the compound `CCCCC(=O)NC(c1ccc(OC)c(OC)c1)c1ccc2cccnc2c1O` (stereo not given), the Potency entry was “inactive”.

Consider `CCC1(C)COC(c2ccc(OC)c(OC)c2)OC1` (stereo not given), for which the Potency entry was “inactive”.

Take `CCC(C)C1(C2CCCC2)NC(=O)NC1=O` (stereo not given): the Potency result was “inactive”.

Turning to `Cc1nn(-c2ccc(F)cc2)c(Cl)c1/C=C(/CCC(=O)O)c1nc2ccccc2s1`, the Potency result was “inactive”.

In the case of `COc1cc(OC)c(C(=O)NNC(=O)c2ccc(NS(=O)(=O)c3cccs3)cc2)cc1OC`, the Potency entry is “inactive”.

Take `CC(=O)OCC1(O)CC23CCC4c5ccoc5CCC4(C)C2CCC1C3` (stereo not given): the Potency result is “inactive”.

As to `CC1CCCN(C(=O)Cn2c(=O)oc3cc(S(=O)(=O)N4CCCCC4C)ccc32)C1` (stereo not given), the Potency result was “inactive”.

With `CCCCN(C(=O)CSCc1ccc(C)cc1)c1c(N)n(Cc2ccccc2)c(=O)[nH]c1=O`, the Potency entry is “inactive”.

On to `OCC1(CO)CC2(C1)CC(CO)(CO)C2`, for which the Potency entry was “inactive”.

For the compound `Cc1ccc(S(=O)(=O)CCC(=O)Nc2nnc(CC(C)C)s2)cc1`, the Potency result was “inactive”.

As to `Cc1ccc(S(=O)(=O)CC(=O)Nc2sc(C)c(C)c2C(N)=O)cc1`, the Potency entry was “inactive”.

On to `Cc1ccc(S(=O)(=O)CC(=O)Nc2nnc(C)s2)cc1`, for which the Potency is 65.1 µM (active).

On to `CCN(CC)S(=O)(=O)c1cccc(NC(=O)c2ccc(S(=O)(=O)N3CCCC3)cc2)c1`, for which the Potency entry was “inactive”.

In the case of `O=C(NNc1nc(N2CCCC2)nc(N2CCCC2)n1)c1ccccc1`, the Potency result was “inactive”.

As for `O=C(NCC1CCCCC1)NCC1CCCCC1`, the Potency entry was “inactive”.

With `Cc1cc(OCCCC(=O)Nc2cc(S(=O)(=O)N3CCOCC3)ccc2N2CCOCC2)ccc1Cl`, the Potency result was “inactive”.

For the compound `C(#CCN1CCOCC1)CCCN1CCOCC1`, the Potency result was “inactive”.

Turning to `c1ccc(C(=NNc2nc3ccccc3s2)c2ccccn2)cc1`, the Potency entry is “inactive”.

On to `O=C1C(Cl)=C(Oc2ccccc2)C(=O)c2ccccc21`, for which the Potency result is “inactive”.

With `O=C(O)C1C2C=CC(O2)C1C(=O)Nc1ccccn1` (stereo not given), the Potency result is “inactive”.

Take `O=C1CC[C@@H]2CC3(C[C@@H]4CCN1[C@H]24)Nc1cc([N+](=O)[O-])ccc1NC3=NC1CCCCC1` (stereo not given in full): the Potency result was “inactive”.

In the case of `COc1cccc2c1C(=O)c1c(O)c3c(c(O)c1C2=O)CC(O)(C(C)=NNC(=O)c1ccc(Cl)c(Cl)c1)CC3OC1CC(N)C(O)C(C)O1` (stereo not given), the Potency is 14.6 µM (active).

Take `Cc1cccc(NC(=S)N2CCC(C(=O)c3ccc(F)cc3)CC2)c1`: the Potency entry was “inactive”.

(Values after PubChem BioAssay AID540263 (National Center for Advancing Translational Sciences (NCATS), 2011).)
